# Only a part is listed here, and it is no random draw. Activity calls are given as the source filed them.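 The calls were made as follows: active = activation above a cutoff set at the mean of all screened compounds plus 3 SD (cut at about 10% in these data); inactive = the rest.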
# Test system: Nuclear hormone receptor DAF-12 (Heterodera glycines), GAL4 fusion
# Assay: hgDAF-12 GAL4 fusion reporter activation – cell-based, luminescence, HEK293, UAS-luciferase, primary screen (AID 687014);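 also: 0% = DMSO wells and 100% = sodium butyrate wells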
# Conditions: HEK293 GAL4-hgDAF12 UAS-luciferase reporter, agonist luminescence; at 6.8 µM; hits give high values; normalized to butyrate control
row,Structure (SMILES),activation
1,O=C(OC1CN2CCC1CC2)c1ccccc1 (stereo unspecified),inactive: -4.91%
2,CCC(=O)N1C2C3N(C(=O)CC)C1C1N(C(=O)CC)C(C(N1C(=O)CC)N3C(=O)CC)N2C(=O)CC,inactive: 0.31%
3,COC(=O)c1cc2c(s1)N=C(c1ccccc1)N(C)P2(=O)N1CCOCC1 (stereo unspecified),inactive: 5.43%
4,CC(=O)NC(SC(=S)N(CC(C)C)CC(C)C)C(Cl)(Cl)Cl (stereo unspecified),inactive: 0.06%
5,Cc1ccc(OP(=O)(Nc2ccccn2)Oc2ccc(C)cc2)cc1,inactive: -0.1%
6,Cc1ccccc1OP(=O)(Nc1ccccn1)Oc1ccccc1C,inactive: -3.21%
7,CC(NC(=O)COC(=O)C(O)(c1ccccc1)c1ccccc1)c1ccccc1 (stereo unspecified),inactive: -0.17%
8,CN(C)C(=O)Oc1noc2ccccc12,inactive: -1.39%
9,O=c1c2cc([N+](=O)[O-])ccc2[nH]c2c([N+](=O)[O-])cc([N+](=O)[O-])cc12,inactive: -3.56%
10,c1ccc(-c2nn[nH]n2)c(-c2nn[nH]n2)c1,inactive: 1.02%
11,Cc1ccc(NP(=O)(Oc2cccc(C)c2)Oc2cccc(C)c2)nc1,inactive: -0.62%
12,O=C(NC1CCS(=O)(=O)C1)NP(=S)(Oc1ccccc1)Oc1ccccc1 (stereo unspecified),inactive: -0.76%
13,CCNC(=S)/N=C(\N)N[N+](=O)[O-],inactive: -2.97%
14,O=P1(N(CCCl)CCCl)OCCC2CCCCN21 (stereo unspecified),inactive: 0.87%
15,Cc1ccccc1CN(C)C(=O)COC(=O)C(O)(c1ccccc1)c1ccccc1,inactive: -0.55%
16,C[C@@H]1C=CCP(=O)(Oc2ccccc2)O1 (stereo partly specified),inactive: 2.48%
17,C[C@H]1OP(=O)(Oc2ccccc2)C[C@@H]2O[C@@H]21 (stereo partly specified),inactive: 3.55%
18,N#C/C(=C\c1ccc(N(CCBr)CCBr)cc1)C(N)=O,inactive: 1.74%
19,CC(=O)c1ccc(N2CC2c2ccncc2)cc1 (stereo unspecified),inactive: 0.64%
20,COC(=O)C1(C)COP(=O)(NCc2ccccc2)OC1 (stereo unspecified),inactive: -3.66%
21,CC(=O)Nc1ccc([As](=O)(O)O)c(O)c1,inactive: -0.27%
22,CC(=O)Nc1ccc(Oc2c([N+](=O)[O-])cc([N+](=O)[O-])cc2[N+](=O)[O-])cc1,inactive: -1.21%
23,O=P1(Nc2nc3ccc(Cl)cc3s2)COc2ccccc2O1 (stereo unspecified),inactive: 2.52%
24,CCOc1ccc(C2=NCC(CBr)S2)cc1 (stereo unspecified),inactive: -1.93%
25,CC(C)(C)C(=O)NC(Sc1ccccc1)C(Cl)(Cl)Cl (stereo unspecified),inactive: -1.58%
26,CCc1cc(O)c([N+](=O)[O-])c(C)c1[N+](=O)[O-],inactive: -0.65%

row,Structure (SMILES),activation
1,O=P(Nc1nccs1)(c1ccccc1)c1ccccc1,inactive: -2.69%
2,CC(C)C(=O)NC(Sc1ccccc1)C(Cl)(Cl)Cl (stereo unspecified),inactive: 1.52%
3,c1nnnn1CCn1cnnn1,inactive: -1.23%
4,O=[As](O)(c1ccccc1)c1ccc(O)cc1,inactive: -0.82%
5,CC(=O)NC(SC(=S)N(C)C)C(Cl)(Cl)Cl (stereo unspecified),inactive: -3.82%
6,O=[N+]([O-])c1ncn(CCn2cnc([N+](=O)[O-])n2)n1,inactive: 2.77%
7,O=C(OC1CN2CCC1CC2)c1cccc(Cl)c1 (stereo unspecified),inactive: 7.44%
8,C/C(N)=N\P(=O)(OCc1ccccc1)OCc1ccccc1,inactive: 2.1%
9,Nc1ccc([As](=O)(O)c2ccc([N+](=O)[O-])cc2)cc1,inactive: 1.16%
10,C(Cc1nn[nH]n1)Cc1nn[nH]n1,inactive: -1.98%
11,CN(C)C1(CNC(=O)c2ccc(Cl)c(S(N)(=O)=O)c2)CCCCC1,inactive: 1.78%
12,O=P(Nc1ccccn1)(c1ccc(Br)cc1)c1ccc(Br)cc1,inactive: 0.68%
13,Nc1ccc(CCCCOc2ccccc2)cc1,inactive: 8.61%
14,COc1ccc(N)c([N+](=O)[O-])c1[N+](=O)[O-],inactive: -3.21%
15,O=P(Nc1nc2ccccc2s1)(c1ccccc1)c1ccccc1,inactive: 4.55%
16,C[C@H]1OP(=O)(Oc2ccccc2)[C@H](O)[C@H](O)[C@H]1N=[N+]=[N-] (stereo partly specified),inactive: 0.38%
17,O=[N+]([O-])c1ncn(CCn2ncnc2[N+](=O)[O-])n1,inactive: 0.62%
18,CC(C)(C)C(=O)NC(Sc1ccncn1)C(Cl)(Cl)Cl (stereo unspecified),inactive: -0.92%
19,O=C(O)CNc1ccc([As](=O)(O)O)cc1,inactive: 0.38%
20,O=[N+]([O-])c1cccc(NC2=NCC(CBr)S2)c1 (stereo unspecified),inactive: 0.08%
21,COC(=O)C1(C)COP(=O)(Nc2ccccc2)OC1 (stereo unspecified),inactive: -0.26%
22,O=P1(N(CCCl)CCCl)OCCCS1 (stereo unspecified),inactive: -0.25%
23,O=C(Nc1cc([As](=O)(O)O)ccc1O)c1ccccc1,inactive: -2.92%
24,CCN(/C(=N/P(=O)(N1CCOCC1)N1CCOCC1)N1CCOCC1)c1ccc(OC)cc1,inactive: 4.66%
25,Nc1ccc([As](=O)(O)c2ccc(N)cc2)cc1,inactive: -4.05%
26,C[N+]1=C2C=CC=CC=C2SC12C([N+](=O)[O-])=CC([N+](=O)[O-])=C[C-]2[N+](=O)[O-] (stereo unspecified),inactive: -10.8%

row,Structure (SMILES),activation
1,c1cc(-c2nn[nH]n2)ccc1-c1nn[nH]n1,inactive: -1.72%
2,CC1CCN(C(=O)Oc2c(Cl)cc(Cl)c3cccnc23)CC1,inactive: 0.18%
3,CC(C)=N/N=C(\N)N[N+](=O)[O-],inactive: 1.63%
4,CC(C)c1nc(Nc2ccccc2)n(P(=O)(N(C)C)N(C)C)n1,inactive: -0.29%
5,CN(C)C(=O)OCCc1n(C)cc[n+]1C,inactive: 2.2%
6,COc1ccc(C2=NCC(CBr)S2)cc1 (stereo unspecified),inactive: 1.91%
7,Cc1ccc(NP(=O)(Oc2ccccc2)Oc2ccccc2)nc1,inactive: 0.77%
8,O=[N+]([O-])c1cc([N+](=O)[O-])c(CCNc2ccccc2)c([N+](=O)[O-])c1,inactive: -1.13%
9,CCc1nc2c(n1)c1c(non1O)c1c2no[n+]1[O-],inactive: -2.78%
10,CC(=O)N1C2C3N(C(C)=O)C1C1N(C(C)=O)C(C(N1C(C)=O)N3C(C)=O)N2C(C)=O,inactive: -0.05%
11,O=[N+]([O-])c1cccc2n[nH]nc12,inactive: -1.63%
12,Oc1ccccc1CNc1ccccn1,inactive: -0.34%
13,O=C(NC(Sc1ccncn1)C(Cl)(Cl)Cl)c1ccccc1 (stereo unspecified),inactive: -1.08%
14,CC(C)CC(=O)NC(Sc1ccc(Cl)cc1)C(Cl)(Cl)Cl (stereo unspecified),inactive: 3.65%
15,Nc1cc(N)c2nonc2c1[N+](=O)[O-],inactive: -0.86%
16,CN(C(=O)Cc1ccc(Cl)c(Cl)c1)[C@H]1CCCC[C@H]1N1CCCC1,inactive: 2.37%
17,Cc1ccc(N/C(=N/P(=O)(N2CCOCC2)N2CCOCC2)N2CCOCC2)cc1,inactive: -1.27%
18,NC(=O)c1cc([N+](=O)[O-])cc([N+](=O)[O-])c1N,inactive: 3.32%
19,Clc1ccc(Cl)c(NC2=NCC(CBr)S2)c1 (stereo unspecified),inactive: 1.81%
20,CN1CCCC(OC(=O)C(c2ccccc2)c2ccccc2)C1 (stereo unspecified),inactive: 1.46%
21,COc1ccccc1OP(=O)(Nc1ccc(C)cn1)Oc1ccccc1OC,inactive: -0.27%
22,Cc1ccc(OP(=O)(Nc2nccs2)Oc2ccc(C)cc2)cc1,inactive: -0.83%
23,Nc1cccc2ccc([As](=O)(O)O)cc12,inactive: -0.11%
24,CN(C(=O)Cc1ccccc1)C1CC[C@@]2(CCCO2)C[C@@H]1N1CCCC1 (stereo partly specified),inactive: -0.66%
25,CCN(N=Nc1nonc1N)c1nonc1N,inactive: -1.21%
26,CN(C)P(=O)(N(C)C)n1c(Nc2ccccc2)nnc1-c1ccccc1,inactive: 5.55%

row,Structure (SMILES),activation
1,O=P(Nc1nc2ccc(Cl)cc2s1)(c1ccccc1)c1ccccc1,inactive: -0.56%
2,O=C(O)c1ccccc1[As](=O)(O)O,inactive: -2.63%
3,CC(=O)Nc1ccc([As](=O)(O)O)cc1,inactive: -0.93%
4,CCCC1OP(N)(=O)OCC1CC (stereo unspecified),inactive: -0.15%
5,CCn1c(=O)n(C2CCN(CC3CCCCCCC3)C[C@H]2CO)c2ccccc21 (stereo partly specified),inactive: -3.57%
6,CCOP(=O)(Nc1ccccc1)OCC,inactive: -1.83%
7,Cc1cc(SC(NC(=O)c2ccc(F)cc2)C(Cl)(Cl)Cl)ncn1 (stereo unspecified),inactive: 2.39%
8,CN(C(=O)Cc1ccc(Cl)c(Cl)c1)[C@H]1CCCC[C@@H]1N1CCCC1,inactive: -1.37%
9,Cc1ccc(NP(=O)(Oc2ccccc2F)Oc2ccccc2F)nc1,inactive: 0.39%
10,ClCCSc1nnc(-c2cccnc2)o1,inactive: 2.13%
11,CC(C)c1ccc(OP(=O)(Nc2ccccn2)Oc2ccccc2F)cc1 (stereo unspecified),inactive: -1.41%
12,COC(=O)C1(C)COP(=O)(N2CCCCCC2)OC1 (stereo unspecified),inactive: -2.39%
13,CCN(CC)C(=S)SC(NC=O)C(Cl)(Cl)Cl (stereo unspecified),inactive: 0%
14,O=C(OC1CN2CCC1CC2)c1cccc2[nH]cnc12 (stereo unspecified),inactive: 3.08%
15,CC(C)NC(=O)NP(=O)(Oc1ccccc1)Oc1ccccc1,inactive: -3.27%
16,O=[As](O)(c1ccc(O)cc1)c1ccccc1O,inactive: -2.36%
17,C[As](=O)(O)c1cccc(C(=O)O)c1,inactive: 1.61%
18,COc1cc(C(=O)NCC2(N3CCOCC3)CCCCC2)ccc1OCC(C)C,inactive: -0.72%
19,O=[N+]([O-])c1ccc(-c2cc([N+](=O)[O-])c(O)c([N+](=O)[O-])c2)cc1,inactive: -2.14%
20,Cc1ccc(OP(=O)(Nc2ccc([N+](=O)[O-])cn2)Oc2ccc(C)cc2)cc1,inactive: -0.6%
21,[N-]=[N+]=NC1CCCCC1NC(=O)c1cc([N+](=O)[O-])cc([N+](=O)[O-])c1 (stereo unspecified),inactive: -0.82%
22,Cc1ccc2nc3c(c(C)c2c1)CC(C(Cl)Cl)S3 (stereo unspecified),inactive: 4.76%
23,O=[N+]([O-])c1cc(Oc2ccc([N+](=O)[O-])cc2C(F)(F)F)cc([N+](=O)[O-])c1,inactive: 0.71%
